Experimental data from patent US9675579B2, “Tetrahydrocannabivarin for use in the treatment of nausea and vomiting” (GW Pharma Limited, priority 2013, dated 2017).

What was measured:
Sprague-Dawley rats = assay: Conditioned gaping to saccharin paired with the compound (Example 1); conditions: i.p., all doses tested (SR 10, 20; AM251 10; THCV 10, 20; CBDV 10, 200 mg/kg), drug-free test 72 h after conditioning, vs VEH and other groups
rats = conditions: McLaughlin et al., 2005; cited from earlier work

Substance: AM251
- conditioned gaping reactions (nausea-like reactions) elicited by 0.1% saccharin previously paired with the compound (Sprague-Dawley rats): produced significantly more conditioned gaping when paired with saccharin solution than any of the other compounds
- conditioned gaping produced by the compound (rats): produced conditioned gaping in rats
